From patent US20250296967A1, “COMPOSITION AND METHOD FOR DELIVERY OF BMP-2 AMPLIFIER/CO-ACTIVATOR FOR ENHANCEMENT OF OSTEOGENESIS” (Ferring B.V., priority 2006, published 2025) come the findings set out here.

The assay has as its system ectopic bone. Briefly: Ectopic bone induction by B2A2-K-NS coated granules with exogenous recombinant BMP-2, subcutaneous implant in rats. The format is in vivo. Conditions: BMP-2 (1 μg) but no B2A2-K-NS, 30 days. As to the method:
Sterile ceramic granules (Berkeley Advanced Biomaterials, Inc.; 60:40 (HA:TCP)) where coated by immersing them for 30 minutes in a solution containing B2A2-K-NS (0-, 2.5-, 10-, 25 μg/ml). Thereafter, the solution was removed by aspiration and the granules allowed to air dry. The coated granules were then placed in sterile gelatin capsules. Immediately before subcutaneous implant in rats, the capsules were injected with a collagen-based gel (GFR-Matrigel) containing 1 μg recombinant BMP-2. The capsules were placed subcutaneously in young adult rats on the flanks in pre-prepared pouches and the surgical site closed with surgical clips. After 30 days, the implants were surgically removed, weighed, and palpated to assess hardness. The explants were then fixed with multiple changes into 70% ethanol. […] All implants coated with 25 ug B2A2-K-NS were judged to be palpably hardened (4/4), whereas implants containing BMP-2 but no B2A2-K-NS had less hardening (1/4). Implants coated with 2.5 or 10 μg B2A2-K-NS were intermediate (3/4). […] All implants coated with 25 ug B2A2-K-NS had histologically identifiable new bone (4/4), whereas implants containing BMP-2 but no B2A2-K-NS had less (1/4).

B1: BMP-2: recombinant bone morphogenic protein-2 in collagen-based gel (protein)
chain: QAKHKQRKRLKSSCKRHPLYVDFSDVGWNDWIVAPPGYHAFYCHGECPFPLADHLNSTNHAIVQTLVNSVNSKIPKACCVPTELSAISMLYLDENEKVVLKNYQDMVVEGCGCR
Take B1: the “implants judged palpably hardened” value is reported as 1/4 and the “implants with histologically identifiable new bone” value was 1/4.
